Data: patent US9649382B2, “Topical bioadhesive formulations” (CAMURUS AB, priority 2005, dated 2017)

Assay: Depot injected into rat periodontal pocket
Format: in vivo
Conditions: 100 μL PC/GDO/EtOH/chlorhexidine (35/53/10/2) injected into rat periodontal pocket
Method: In order to treat periodontitis or perimplantitis an antibacterial formulation is injected in the periodontal pocket, and a prolonged effect of the formulation is normally desired. 100 μL of a formulation as prepared in Example 1, with the addition of the antibiotic chlorohexidine (PC/GDO/EtOH/chlorhexidine (35/53/10/2)), is injected via a syringe into a rat peridontal pocket. The injected composition is observed to transform from the low viscous formulation, and which initially spreads out to fill voids, to form a solid mass by uptake of gingival fluids. An antibacterial depot system is thus provided.
An alternate antibacterial formulation was provided by a formulation prepared as described in Example 1 and containing the antibacterial detergent Gardol (Glycine, N-methyl-N-(1-oxododecyl)-, sodium salt) (PC/GDO/EtOH/Gardol (34/51/10/5)). This formulation is injected into the rat periodontal pocket.
Gardol is observed to remain at clinically effective levels in the GCF of the periodontal pockets for a prolonged period (several days).

## chlorhexidine
  time chlorhexidine remains at clinically effective levels in the GCF of the periodontal pockets: over 1 week
